Hits are enriched below; roughly 2.2% of the tested compounds scored in any of these assays.
miR-21 reporter: miR-21 reporter, rising signal | AID 2288 | HeLa miR-21 FLuc reporter, luciferase, 48 h | 340,000 tested, under 10 active | Potency, µM (titrated, usually from 38.3 µM), for the others: at the top dose reporter change, positive = more light; active = well fitted rising curve with a large enough effect; inconclusive = small, poorly fitted or top-dose-only effect; inactive = no such curve, though single readings can be large or run the other way;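 also: % of control where 0% means no effect; miR-21 action dims this reporter so a rising signal means less miR-21 action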
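HeLa cells stably expressing CMV-driven firefly luciferase with a downstream miR-21 binding sequence, endogenously expressing miR-21, were treated with titrations (up to about 40uM final) for 48 hours at 37 degree Celsius. Luciferase luminescence was read after lysis.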
Nrf2 inh: Nrf2 pathway inhibition. A549 ARE-Fluc reporter, luciferase luminescence, 18-24 h. Potency, µM (top dose mostly 46 µM), for inactives: top-dose activity change, negative = inhibition, most hits filed as inhibitors. 360,000 compounds, 2.1% hits; also: potency is read from the fitted curve at half-maximal effect; % is scaled to controls: 0 for no effect and ±100 for the full control effect; nearly all actives have a fitted effect of over 60% in size
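In this cell-based qHTS, ARE-driven firefly luciferase in A549 cells reports Nrf2 activity; the luminescent signal after BugLite lysis is the measured value, with a prior CellTiter-Fluor read for cell health.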
Nrf2 activator: activates Nrf2 signaling; AREc32 ARE-luciferase reporter (MCF7-derived line), luminescence, 24 h; Potency, µM (titrated, usually from 46.1 µM), for inactives: at the top dose activation, most hits filed as activators; AID 624171; 410,000 compounds, 0.31% hits; also: potency is read from the fitted curve at half-maximal effect; % of control where 0% means no effect; nearly all actives have a fitted effect of over 65% in size
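Reporter line AREc32 (ARE-Fluc), seeded overnight in OPTI-MEM with 5% FBS; compound pin-transferred, 24 hr at 37 deg C, 5% CO2; luminescent read-out.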
A549 viability: counter-screen for Nrf2 inhibitors: cytotoxicity in A549 cells; A549 ARE-Fluc cells, CellTiter-Fluor viability, 18-24 h; Potency, µM (series often up to 46 µM), without a hit: top-dose activity change, negative = cytotoxicity, hits mostly inhibitors; 390,000 compounds, 0.16% hits; also: potency is read from the fitted curve at half-maximal effect; % is scaled to controls: 0 for no effect and ±100 for the full control effect
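Cytotoxicity counterscreen: CellTiter-Fluor fluorescence was measured in A549 ARE_Fluc cells after 18-24 h of compound exposure in a concentration series. The subsequent BugLite luminescent read reports ARE-luciferase activity.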
B2AR arrestin: beta2AR (human) beta-arrestin recruitment activity. 330,000 compounds, 0.02% hits. P07550. Potency, µM (titrated, usually from 46.1 µM), without a hit: at the highest dose activation, usual class: activators. beta-arrestin recruitment to beta2AR, cell-based reporter;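 also: potency is read from the fitted curve at half-maximal effect; 0% = DMSO controls and full agonism = EC100 isoproterenol or metaproterenol; nearly all actives have a fitted effect of over 65% in size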
* = called active by the depositor; ? = inconclusive; nt = not tested or not shown; [ ] = remark or other dose. Unless noted, calls follow the shape of the dose curve; as a rule, active = well fitted curve in the direction sought with a large enough effect; inconclusive = small, poorly fitted or top-dose-only effect, or another doubt; inactive = no such curve, though single readings can be large; an effect the other way counts as inactive or inconclusive.

#1 CCOC(=O)c1cc2c(=Cc3ccc(N(C)C)cc3)c3ccccc3n2[n+]1C
#2 CCOC(=O)SC1=N/C(=C\c2ccc(N(C)C)cc2)C(=O)S1
#3 CN(C)c1ccc(C=C2C=Cc3ccccc32)cc1
#4 CN(C)c1ccc(C=c2c3ccccc3n3c2c2ccccc2[n+]3C)cc1
#5 CCN(CC)c1cc(C)c2cc(NC(=O)/C=C/c3cc(OC)c(OC)c(OC)c3)ccc2n1
#6 O=C(CSc1nc2nn(-c3ccccc3)c(=O)c-2c2n1CCCCC2)Nc1ccc(F)c(F)c1

Assay by compound | 1 | 2 | 3 | 4 | 5 | 6
miR-21 reporter | nt | -6% | nt | nt | 15% | nt
Nrf2 inh | 8.2µM* | 27% | ? | 8.2µM* | -2%[9.27 µM] | 18µM*
Nrf2 activator | 4% | 5% | 3% | 8% | -6% | -1%
A549 viability | ? | 7% | -20% | ? | ? | ?
B2AR arrestin | nt | 0% | nt | nt | nt | 0%

Values by screen from above:
Compounds 2–5 in Nrf2 inh, in turn: 27%, ?, 8.2µM*, -2%[9.27 µM]

(next part)
#7 CC(=O)c1ccc(NC(=O)CSc2nc3nn(-c4ccccc4)c(=O)c-3c3n2CCCCC3)cc1
#8 O=C(Nc1cccc(Cl)c1)N1CCN2C(=O)c3ccccc3C12c1ccccc1 (centres undefined)
#9 O=C(CCl)N1CCN2C(=O)c3ccccc3C12c1ccc(Cl)cc1 (centres undefined)
#10 CCN1CCc2c(sc(NC(=S)NC(=O)c3cccc(F)c3)c2C(N)=O)C1
#11 Cc1ccc(C(=O)N2CCN(c3ccc(NC(=O)COc4ccccc4C)cc3)CC2)cc1
#12 Cc1ccc(OCC(=O)Nc2ccc(N3CCN(C(=O)c4ccco4)CC3)cc2)cc1

Assay by compound | 7 | 8 | 9 | 10 | 11 | 12
miR-21 reporter | nt | ? | ? | nt | 30% | 1%
Nrf2 inh | -11% | 21µM* | -18% | ? | 21µM* | 21µM*
Nrf2 activator | 2% | 3% | ? | nt | 0% | 0%
A549 viability | 6% | ? | 1% | -7% | ? | 1%
B2AR arrestin | nt | 0% | 0% | nt | 0% | 0%

#13 O=C(COc1ccccc1)Nc1ccc(N2CCN(C(=O)c3ccco3)CC2)cc1
#14 CCC(=O)N1CCN(c2ccc(NC(=O)COc3ccc(C)cc3C)cc2)CC1
#15 COc1cc(CN(C(=O)c2oc3ccccc3c2C)C2CCS(=O)(=O)C2)cc(OC)c1OC (centres undefined)
#16 COc1ccc(-c2nc(NC(=O)Cn3cnnn3)sc2C)cc1
#17 COc1ccc(-c2nc(NC(=O)Cn3ccc(C(F)(F)F)n3)sc2C)cc1
#18 COc1cc(OC)cc(-c2nc3nc(C)c(CCC(=O)Nc4ccc(F)cc4F)c(C)n3n2)c1

Assay by compound | 13 | 14 | 15 | 16 | 17 | 18
miR-21 reporter | 12% | 15% | -1% | -3% | 21% | -21%
Nrf2 inh | 1% | ? | 0% | 3% | 21µM* | -11%
Nrf2 activator | 0% | 0% | 0% | 1% | 2% | -1%
A549 viability | 2% | -7% | -7% | -2% | ? | 2%
B2AR arrestin | 0% | 0% | nt | 0% | -1% | nt

#19 O=C(NCCCN1CCCCC1)c1ccc2c(c1)NC(=O)c1ccccc1S2
#20 CC1=Nc2cc(C(=O)NCCCOC(C)C)ccc2Sc2ccc(C)cc21
#21 CC(C)OCCCNC(=O)c1ccc2c(c1)NC(=O)c1ccccc1S2
#22 CC1=Nc2cc(C(=O)NCCCOC(C)C)ccc2Sc2ccccc21
#23 CCC1=Nc2cc(C(=O)NC3CCC(C)CC3)ccc2Sc2ccc(C)cc21 (centres undefined)
#24 CCCC1=Nc2cc(C(=O)NCCCOC(C)C)ccc2Sc2ccccc21

Assay by compound | 19 | 20 | 21 | 22 | 23 | 24
miR-21 reporter | 5% | 14% | 18% | 18% | 23% | 19%
Nrf2 inh | 18% | 23µM* | 21µM* | 7% | ? | 8.2µM*
Nrf2 activator | -1% | -1% | 3% | 0% | 0% | 0%
A549 viability | 0% | -12% | 0% | -9% | -4% | ?
B2AR arrestin | 0% | 0% | 0% | 0% | nt | 0%

#25 CCOC(=O)N1CCC(NC(=O)c2ccc3c(c2)N=C(CC)c2cc(C)ccc2S3)CC1
#26 O=S(=O)(c1ccccc1Br)N1CCN(c2nc(-c3ccccc3)nc3ccccc23)CC1
#27 CCOc1ccc(C2C(=O)N(C3CCCCC3)CC(=O)N2Cc2ccccc2OC)cc1OC (centres undefined)
#28 COc1nc(C#N)nc(N2CCCCC2)n1
#29 CC(=O)c1ccc(N2CCN(C(=O)c3cc4c(s3)-c3ccccc3OC4)CC2)cc1
#30 O=C(Nc1cccnc1)C1(F)C(F)(F)C(F)(F)C(F)(F)C(F)(F)C1(F)F

Assay by compound | 25 | 26 | 27 | 28 | 29 | 30
miR-21 reporter | 28% | nt | -6% | nt | 0% | -1%
Nrf2 inh | 23µM* | 0% | nt | -27% | ? | nt
Nrf2 activator | -1% | nt | 1% | nt | -1% | 10µM*
A549 viability | 5% | 0% | -1% | -1% | 6% | 0%
B2AR arrestin | -1% | nt | nt | nt | nt | -1%

Given tab-delimited: part of the list above.
cpd	canonical_smiles	miR-21 reporter	Nrf2 inh	Nrf2 activator	A549 viability	B2AR arrestin
10	CCN1CCc2c(sc(NC(=S)NC(=O)c3cccc(F)c3)c2C(N)=O)C1	nt	?	nt	-7%	nt
11	Cc1ccc(C(=O)N2CCN(c3ccc(NC(=O)COc4ccccc4C)cc3)CC2)cc1	30%	21µM*	0%	?	0%
12	Cc1ccc(OCC(=O)Nc2ccc(N3CCN(C(=O)c4ccco4)CC3)cc2)cc1	1%	21µM*	0%	1%	0%
13	O=C(COc1ccccc1)Nc1ccc(N2CCN(C(=O)c3ccco3)CC2)cc1	12%	1%	0%	2%	0%

Going on with the list:
#31 O=C(Nc1cccnc1)C12CC3CC(CC(C3)C1)C2
#32 COC(=O)CCN(Cc1ccco1)S(=O)(=O)c1ccc(F)cc1Br
#33 N#Cc1ccc(-c2ccc(OCC(=O)Nc3cccnc3)cc2)cc1
#34 O=C(COc1ccc(C(=O)c2ccccc2)cc1)Nc1cccnc1
#35 CC(=O)Nc1ccc(NC(=O)COc2ccc(-c3ccc(C#N)cc3)cc2)cc1
#36 N#Cc1ccc(C(=O)NCC(=O)OC(C(=O)Nc2cc(C(F)(F)F)ccc2Cl)c2ccccc2)cc1 (centres undefined)

Assay by compound | 31 | 32 | 33 | 34 | 35 | 36
miR-21 reporter | -11% | nt | 23% | 23% | nt | nt
Nrf2 inh | ? | 22% | 7.3µM* | 23µM* | 9% | 9%
Nrf2 activator | -1% | nt | 2% | 0% | 0% | nt
A549 viability | -4% | 0% | -13% | ? | 1% | 17%
B2AR arrestin | 0% | nt | 0% | 0% | 0% | nt

#37 O=c1c(Cl)c(N/N=C/c2ccc(Br)cc2)cnn1-c1ccccc1
#38 O=C(O)CCCn1c(O)c(C=C2N=c3ccccc3=N2)sc1=S
#39 Oc1ccc(CNc2ccccc2F)c2cccnc12
#40 Oc1ccc(CNc2ccc(F)cc2F)c2cccnc12
#41 CC(OC(=O)/C=C/c1cccs1)C(=O)NC1CCCCC1C (centres undefined)
#42 CC(OC(=O)/C=C/c1ccco1)C(=O)Nc1cccc([N+](=O)[O-])c1 (centres undefined)

Assay by compound | 37 | 38 | 39 | 40 | 41 | 42
miR-21 reporter | -2% | -5% | ? | nt | 2% | 26%
Nrf2 inh | ? | -14% | ? | 10µM* | -8% | ?
Nrf2 activator | 7.1µM* | 14µM* | -1% | nt | -1% | ?
A549 viability | -20% | ? | -20% | -17% | -12% | 1%
B2AR arrestin | 0% | -1% | 0% | nt | 0% | 0%

#43 CC(OC(=O)/C=C/c1ccco1)C(=O)NC1CCCCC1C (centres undefined)
#44 COc1ccc([N+](=O)[O-])cc1NC(=O)c1ccco1
#45 COc1ccc([N+](=O)[O-])cc1NC(=O)C(C)OC(=O)/C=C/c1ccco1 (centres undefined)
#46 Clc1nc(NCc2ccco2)c2[nH]cnc2n1
#47 O=C(Cn1sc2ccccc2c1=O)NC12CC3CC(CC(C3)C1)C2
#48 O=C(Nc1ccc(C(F)(F)F)cc1)c1ccc(NC(=O)C2CCCO2)cc1 (centres undefined)
#49 COC(=O)c1ccc(CNC(=O)Cn2cnc3c(SC)nc(N)nc32)cc1
#50 CSc1nc(N)nc2c1ncn2CC(=O)NCCCc1ccccc1

Assay by compound | 43 | 44 | 45 | 46 | 47 | 48 | 49 | 50
miR-21 reporter | nt | -1% | -2% | nt | 17% | 13% | nt | nt
Nrf2 inh | 13µM* | -21% | -19% | ? | 15% | 21µM* | 23µM* | ?
Nrf2 activator | 0% | 3.2µM* | 13µM* | nt | 13µM* | 1% | 0% | 1%
A549 viability | -7% | 1% | 12% | -4% | -1% | 2% | 2% | -1%
B2AR arrestin | 0% | 0% | -3% | nt | 0% | 0% | -1% | 0%

Bioassay records as filed in PubChem BioAssay.
